Data on 11 compounds can be found in patent publication US9284333B2, “Fused pyrroledicarboxamides and their use as pharmaceuticals” (SANOFI, priority 2012, dated 2016).

The chains behind the UniProt entries cited, without tags or fusion partners. Where a name states a change or a piece, a line headed by the entry shows the natural chain unless it says otherwise.
UniProt O14649: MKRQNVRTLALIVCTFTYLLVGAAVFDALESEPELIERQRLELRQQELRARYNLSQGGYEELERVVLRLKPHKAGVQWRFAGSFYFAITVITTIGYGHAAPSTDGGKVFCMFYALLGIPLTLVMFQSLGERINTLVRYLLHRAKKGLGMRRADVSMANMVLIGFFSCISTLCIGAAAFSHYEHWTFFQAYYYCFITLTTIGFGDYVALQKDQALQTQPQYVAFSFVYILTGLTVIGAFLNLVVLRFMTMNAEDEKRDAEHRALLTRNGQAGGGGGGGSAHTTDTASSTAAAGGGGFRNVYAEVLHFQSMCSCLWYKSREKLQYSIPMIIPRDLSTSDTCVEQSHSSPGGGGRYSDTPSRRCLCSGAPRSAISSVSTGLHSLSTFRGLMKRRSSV

The test deals with Human TASK-1 channels (Homo sapiens (Human), UniProt O14649). Description: Determination of the activity on the TASK-1 channel in Xenopus oocytes (two-microelectrode voltage clamp). Format: cell-based. To be noted: human TASK-1 expressed in Xenopus oocytes, room temperature; read-out: IC50 value for TASK-1 inhibition. As to the method:
Determination of the activity on the TASK-1 channel in Xenopus oocytes
Human TASK-1 channels were expressed in Xenopus oocytes. For this purpose, oocytes were isolated from Xenopus laevis and defoliculated. Subsequently, TASK-1-encoding RNA synthesized in vitro was injected into the oocytes. After two days of TASK-1 protein expression, TASK-1 currents were measured by two-microelectrode voltage clamp. Data were acquired and analyzed using a TEC-10cx amplifier (NPI Electronic, Tamm, Germany) connected to an ITC-16 interface (Instrutech Corp., Long Island, USA) and Pulse software (HEKA Elektronik, Lambrecht, Germany). Oocytes were clamped to −90 mV and TASK-1 mediated currents were measured during 500 ms voltage pulses to 40 mV. Oocytes were continuously superfused with ND96 buffer containing 96 mM sodium chloride, 2 mM potassium chloride, 1.8 mM calcium chloride, 1 mM magnesium chloride, 5 mM 4-(2-hydroxyethyl)-piperazine-1-ethanesulfonic acid (HEPES; pH adjusted to 7.4 with sodium hydroxide). All experiments were performed at room temperature. Test compounds were consecutively added to the bath solution at rising concentrations. Compound effects were calculated as the percentage inhibition of TASK-1 control current before compound addition. IC50 values were obtained by fitting the data to the general dose-response equation.
One may read the IC50 as the concentration needed to halve the response being measured. Take `CC[C@@H](NC(=O)c1cc(C(=O)NC(C)c2ccon2)n2c1COCC2)c1ccccc1` (mixture of isomers) [16im, 3,4-Dihydro-1H-pyrrolo[2,1-c][1,4]oxazine-6,8-dicarboxylic acid 6-[(-1-isoxazol-3-yl-ethyl)-amide] 8-[((R)-1-phenyl-propyl)-amide]]: the IC50 came to 140 nM.
On to `CC[C@@H](NC(=O)c1cc(C(=O)NC(C)c2ccon2)n2c1COCC2)c1ccccc1` (mixture of isomers) [16in, 3,4-Dihydro-1H-pyrrolo[2,1-c][1,4]oxazine-6,8-dicarboxylic acid 6-[(-1-isoxazol-3-yl-ethyl)-amide] 8-[((R)-1-phenyl-propyl)-amide]], for which the IC50 came to 370 nM.
As for `CC(C)[C@@H](NC(=O)c1cc(C(=O)N[C@H](C)c2ncccn2)c2n1CCOC2)c1ccc(F)cc1` (racemic) [16ls, 3,4-Dihydro-1H-pyrrolo[2,1-c][1,4]oxazine-6,8-dicarboxylic acid 6-{[(R)-1-(4-fluoro-phenyl)-2-methyl-propyl]-amide} 8-[((R)-1-pyrimidin-2-yl-ethyl)-amide]], the 50% inhibitory concentration (IC50) amounted to 470 nM.
Under `CC[C@@H](NC(=O)c1cc(C(=O)N2CCC[C@@H]2C)n2c1COCC2)c1ccc(OC(F)F)cc1` [16av, 6-((S)-2-Methyl-pyrrolidine-1-carbonyl)-3,4-dihydro-1H-pyrrolo[2,1-c][1,4]oxazine-8-carboxylic acid [(R)-1-(4-difluoromethoxy-phenyl)-propyl]-amide] stands 470 nM.
Consider `CC[C@@H](NC(=O)c1cc(C(=O)N2CCC[C@@H]2C)n2c1COCC2)c1ccc(C(F)(F)F)nc1` [16e, 6-((S)-2-methyl-pyrrolidine-1-carbonyl)-3,4-dihydro-1H-pyrrolo[2,1-c][1,4]oxazine-8-carboxylic acid [(R)-1-(6-trifluoromethyl-pyridin-3-yl)-propyl]-amide], for which the IC50 was found to be 470 nM.
`CC[C@H](NC(=O)c1cc(C(=O)NCC2CC2)c2n1CCOC2)c1ccccc1` [16jr, 3,4-Dihydro-1H-pyrrolo[2,1-c][1,4]oxazine-6,8-dicarboxylic acid 8-cyclopropylmethyl-amide 6-[((S)-1-phenyl-propyl)-amide]]: the IC50 came out at 470 nM.
`CC[C@@H](NC(=O)c1cc(C(=O)N2CCC[C@@H]2C)c2n1CCSC2)c1ccccc1` [16kr, 8-((S)-2-Methyl-pyrrolidine-1-carbonyl)-3,4-dihydro-1H-pyrrolo[2,1-c][1,4]thiazine-6-carboxylic acid ((R)-1-phenyl-propyl)-amide]: the IC50 was determined as 470 nM.
For the compound `CC[C@H]1CCCN1C(=O)c1cc(C(=O)N[C@H](CC)c2ccc(C(F)(F)F)nc2)c2n1CCOC2` [16le, 6-((S)-2-Ethyl-pyrrolidine-1-carbonyl)-3,4-dihydro-1H-pyrrolo[2,1-c][1,4]oxazine-8-carboxylic acid [(R)-1-(6-trifluoromethyl-pyridin-3-yl)-propyl]-amide], the IC50 amounted to 470 nM.
For `CC[C@@H](NC(=O)c1cc(C(=O)N[C@H](C)c2ccc(F)cc2)c2n1CCOC2C)c1ccccc1` (stereo partly drawn) [16lg, 1-Methyl-3,4-dihydro-1H-pyrrolo[2,1-c][1,4]oxazine-6,8-dicarboxylic acid 8-{[(R)-1-(4-fluoro-phenyl)-ethyl]-amide} 6-[((R)-1-phenyl-propyl)-amide]], the IC50 was found to be 46 nM.
For `CC[C@@H](NC(=O)c1c(Cl)c(C(=O)N2CCC[C@@H]2C)n2c1COCC2)c1ccc(C(F)(F)F)nc1` [16rv, 7-Chloro-6-((S)-2-methyl-pyrrolidine-1-carbonyl)-3,4-dihydro-1H-pyrrolo[2,1-c][1,4]oxazine-8-carboxylic acid [(R)-1-(6-trifluoromethyl-pyridin-3-yl)-propyl]-amide], the half-maximal inhibitory concentration (IC50) was determined as 870 nM.
Consider `CC[C@@H](NC(=O)c1c(Cl)c(C(=O)N2CCC[C@@H]2C)n2c1COCC2)c1ccccc1` [16rw, 7-Chloro-6-((S)-2-methyl-pyrrolidine-1-carbonyl)-3,4-dihydro-1H-pyrrolo[2,1-c][1,4]oxazine-8-carboxylic acid ((R)-1-phenyl-propyl)-amide], for which the half-maximal inhibitory concentration (IC50) turned out to be 470 nM.
